Data published in patent US5043328A (dated 1991).

Conditions: 1440 min

Sucrose palmitate stearate 15 [Example 66]
Stabilization (% remaining unsaturated fatty acid by Method 1): 92%
